Literature values, collected in PMC5515969, “Effects of 31 FDA approved small-molecule kinase inhibitors on isolated rat liver mitochondria” (Archives of Toxicology, 2016).

Details: human therapeutic Cmax at FDA recommended dosages; ref product labeling and drug approval packages at the official FDA website; cited from earlier work

SMILES: CS(=O)(=O)CCNCc1ccc(-c2ccc3ncnc(Nc4ccc(OCc5cccc(F)c5)c(Cl)c4)c3c2)o1 [Lapatinib]
- Cmax: 4.18 µM
